Measurements as given in patent publication US10155727B2, “Pyrazoles” (Janssen Pharmaceuticals, Inc., priority 2014, dated 2018).

Sequences of proteins named here, by UniProt entry; tags and fusion partners are left off. Residues count along the entry.
UniProt Q00960, 27-1482: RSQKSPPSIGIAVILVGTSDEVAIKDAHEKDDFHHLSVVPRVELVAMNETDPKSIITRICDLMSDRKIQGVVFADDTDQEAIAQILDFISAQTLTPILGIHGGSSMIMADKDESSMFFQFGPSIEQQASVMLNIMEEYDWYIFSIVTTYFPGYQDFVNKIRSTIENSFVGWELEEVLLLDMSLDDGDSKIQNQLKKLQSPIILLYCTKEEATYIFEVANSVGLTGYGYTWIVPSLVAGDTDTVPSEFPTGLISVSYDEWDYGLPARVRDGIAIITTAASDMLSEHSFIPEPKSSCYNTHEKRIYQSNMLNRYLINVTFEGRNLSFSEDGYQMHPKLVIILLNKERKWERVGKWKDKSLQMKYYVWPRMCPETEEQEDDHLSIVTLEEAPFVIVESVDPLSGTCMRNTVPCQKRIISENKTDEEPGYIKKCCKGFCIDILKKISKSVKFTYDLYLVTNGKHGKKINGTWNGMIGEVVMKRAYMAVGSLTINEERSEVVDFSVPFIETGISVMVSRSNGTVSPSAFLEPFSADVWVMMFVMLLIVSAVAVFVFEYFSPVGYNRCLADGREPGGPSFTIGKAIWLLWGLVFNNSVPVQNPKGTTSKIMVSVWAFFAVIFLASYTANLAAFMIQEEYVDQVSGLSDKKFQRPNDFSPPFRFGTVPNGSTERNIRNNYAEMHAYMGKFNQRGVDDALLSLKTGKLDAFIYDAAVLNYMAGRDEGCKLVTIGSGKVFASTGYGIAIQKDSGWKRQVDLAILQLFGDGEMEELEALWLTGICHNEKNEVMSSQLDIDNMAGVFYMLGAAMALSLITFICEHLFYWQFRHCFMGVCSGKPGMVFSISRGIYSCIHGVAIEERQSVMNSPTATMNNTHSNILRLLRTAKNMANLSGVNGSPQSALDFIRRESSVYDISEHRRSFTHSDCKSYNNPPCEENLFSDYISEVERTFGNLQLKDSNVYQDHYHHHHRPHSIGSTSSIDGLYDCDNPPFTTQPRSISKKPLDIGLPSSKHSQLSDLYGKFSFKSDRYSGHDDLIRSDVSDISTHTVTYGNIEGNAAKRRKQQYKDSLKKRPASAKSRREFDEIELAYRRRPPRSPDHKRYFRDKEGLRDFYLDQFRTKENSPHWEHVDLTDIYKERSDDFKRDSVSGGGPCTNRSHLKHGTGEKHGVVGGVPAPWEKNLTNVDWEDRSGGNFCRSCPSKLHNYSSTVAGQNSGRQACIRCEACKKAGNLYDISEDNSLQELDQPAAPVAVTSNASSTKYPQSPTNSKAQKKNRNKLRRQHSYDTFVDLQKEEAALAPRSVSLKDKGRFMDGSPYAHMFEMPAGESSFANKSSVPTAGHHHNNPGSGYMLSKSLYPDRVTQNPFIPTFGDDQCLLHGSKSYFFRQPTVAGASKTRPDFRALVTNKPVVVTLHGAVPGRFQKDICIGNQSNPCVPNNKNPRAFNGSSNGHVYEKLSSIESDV

Biological target: rat NR1/NR2B receptor (Rattus norvegicus (Rat), UniProt P35439+Q00960)
Test: NR2B binding assay: inhibition of specific [3H]-Ifenprodil binding to the rat NR1/NR2B receptor
Details: rat brain membranes
Description: Biological Assays Inhibition of Specific Binding to the Rat NR1/NR2B Receptor
Male Wistar rats (180 to 200 g) were killed by suffocation in a CO2 chamber for two minutes. Whole brains without cerebellum were removed and dissected on ice, placed into closed vials and stored at −70° C.
Membrane fractions were prepared and tested using standard techniques. At the time of the assay, 1 g of the brains was placed into 25 ml of 50 mM Tris/10 mM EDTA buffer, pH 7.1, (25 vol. per g of original tissue) and homogenized for 30 sec at 20000 rpm with an Ultraturrax T25 (Jahnke & Kunkel, IKA-Labortechnik, Staufen, Germany).
The supernatant was discarded and the pellet was homogenized on ice for 30 sec at 20000 rpm with an Ultraturrax and again centrifuged at 48000 g for 30 minutes at 4° C. The resultant pellet was resuspended in 25 ml of 50 mM Tris/10 mM EDTA buffer, homogenized for 30 sec with an Ultraturrax, aliquoted, frozen at −70° C. and stored until use.
After thawing on the day of the assay, a 5 ml membrane aliquot was centrifuged at 48000 g for 30 min at 4° C. The pellet was resuspended in 5 ml of 5 mM Tris/1 mM EDTA buffer, pH 7.4, homogenized for 30 sec at 20000 rpm with an Ultraturrax and centrifuged at 48000 g for 30 min at 4° C. This was repeated twice. The final pellet was homogenized in 5 ml of 5 mM Tris/1 mM EDTA buffer at 4° C. with an Ultraturrax and used for the Ifenprodil-binding assay as described in the following.
Nonspecific binding was estimated in the presence of […] CP101.606. The samples were incubated for 60 min. at 4° C.
The incubation was terminated by filtration of the membrane preparations using Filtermat B (Pharmacia, Uppsala Sweden) and a Micro Cell Harvester (Skatron, Lier, Norway). The Filtermat B had been presoaked with 1% polyethylene imine and carefully washed with 50 mM Tris/HCl-buffer pH 7.7 after the filtration to separate free and bound radioactivity.
The optimal amount of membrane preparation in the assay was determined and optimized for each membrane preparation separately before the test.
For pipetting of the incubation mixture the robot Biomek2000 (Fa. Beckman) was used.
For determination of IC50 values the Hill-plot, 2-parameter-model was used.

Row | Structure (SMILES) | IC50 [µM]
1 | Cc1n[nH]c(C)c1CCn1cc(-c2ccc(Cl)c(C(F)F)c2)cn1 [Example 27, 4-[2-[4-[4-Chloro-3-(difluoromethyl)phenyl]pyrazol-1-yl]ethyl]-3,5-dimethyl-1H-pyrazole] | 7.17
2 | Cc1cc(Cn2cc(-c3cccc(Br)c3)cn2)n(C)n1 [Example 81, 5-[[4-(3-bromophenyl)pyrazol-1-yl]methyl]-1,3-dimethyl-pyrazole Succinate] | 4.63
3 | Cc1cc(Cn2cc(-c3cccc(OC(F)(F)F)c3)cn2)n(C)n1 [Example 22, 1,3-dimethyl-5-[[4-[3-(trifluoromethoxy)phenyl]pyrazol-1-yl]methyl] pyrazole Succinate] | 2.76
4 | FC(F)c1cc(Cl)cc(-c2cnn(Cc3cc[nH]n3)c2)c1 [Example 28, 4-[3-chloro-5-(difluoromethyl)phenyl]-1-(1H-pyrazol-3-ylmethyl)pyrazole] | 0.638
5 | Cc1cc(Cn2cc(-c3ccc(Cl)cc3Cl)cn2)n(C)n1 [Example 65, 5-[[4-(2,4-dichlorophenyl)pyrazol-1-yl]methyl]-1,3-dimethyl-pyrazole] | 3.81
6 | Cc1cc(Cn2cc(-c3ccc(Br)cc3)cn2)n(C)n1 [Example 80, 5-[[4-(4-bromophenyl)pyrazol-1-yl]methyl]-1,3-dimethyl-pyrazole] | 6.21
7 | Cc1cc(Cn2cc(-c3ccc(Cl)c(C)c3)cn2)n(C)n1 [Example 57, 5-[[4-(4-chloro-3-methyl-phenyl)pyrazol-1-yl]methyl]-1,3-dimethyl-pyrazole Succinate] | 0.967
8 | CCn1cncc1Cn1cc(-c2ccc(F)c(C)c2)cn1 [Example 96, 4-(4-fluoro-3-methylphenyl)-1-((1-ethyl-1H-imidazol-5-yl)methyl)-1H-pyrazole] | 0.0778
